From article PMC7024175, “In Depth Analysis of Kinase Cross Screening Data to Identify CAMKK2 Inhibitory Scaffolds” (Molecules, 2020)

By UniProt entry, the sequences of proteins in these tests, tags left out. Residues count along the entry.
UniProt Q96RR4, 165-446 limits assumed: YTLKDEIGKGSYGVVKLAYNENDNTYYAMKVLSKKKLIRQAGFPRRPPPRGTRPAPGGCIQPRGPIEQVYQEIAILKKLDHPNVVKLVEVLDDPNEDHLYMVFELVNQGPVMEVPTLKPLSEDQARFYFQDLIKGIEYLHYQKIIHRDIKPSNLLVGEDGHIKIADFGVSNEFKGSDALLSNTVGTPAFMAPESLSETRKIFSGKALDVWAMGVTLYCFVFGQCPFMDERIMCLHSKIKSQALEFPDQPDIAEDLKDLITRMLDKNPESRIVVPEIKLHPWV

Molecular target: CAMKK2 (Homo sapiens, UniProt Q96RR4)
Assay: CAMKK2 DSF assay (differential scanning fluorimetry)
Settings: read-out: CAMKK2 ΔTm

ΔTm at 12.5 µM: 13.6 °C
SMILES: COc1cc(N2CCC(N3CCN(C)CC3)CC2)ccc1Nc1ncc(Cl)c(Nc2ccccc2P(C)(C)=O)n1 [AP26113]
